Values of other authors in PMC11293113, “Comparing regional brain uptake of incretin receptor agonists after intranasal delivery in CD-1 mice and the APP/PS1 mouse model of Alzheimer’s disease” (Alzheimer's Research & Therapy, 2024).

Details: native incretin hormones; cited from earlier work
Description: IRAs are forms of these hormones modified to prolong their otherwise very short half-lives in plasma (less than 2 min).

## glucose-dependent insulinotropic polypeptide [GIP]
  Half-life in plasma: less than 2 min
